# Reference: patent publication US9695240B2, “Anthracycline derivative conjugates, process for their preparation and their use as antitumor compounds” (Genentech, Inc., priority 2008, dated 2017)
# “Also recorded” adds a separate entry of the source.
# How the values were obtained:
# Format in all cases: cell-based
# Conditions in all cases: continuous exposure
# BT-474 cells = assay: CellTiter-Glo in vitro cell proliferation assay, BT-474
# Procedure: (§1) Generally, the cytotoxic or cytostatic activity of an antibody-drug conjugate (ADC) is measured by: exposing mammalian cells having tumor-associated antigens or receptor proteins to the antibody of the ADC in a cell culture medium; culturing the cells for a period from about 6 hours to about 5 days; and measuring cell viability. Cell-based in vitro assays may be used to measure viability, i.e. proliferation (IC50), cytotoxicity (EC50), and induction of apoptosis (caspase activation) of the ADC. […] This cell proliferation assay determines the number of viable cells in culture based on quantitation of the ATP present, an indicator of metabolically active cells (Crouch et al (1993) J. Immunol. Meth. 160:81-88; U.S. Pat. No. 6,602,677). […]
# (§2) The in vitro potency of antibody-drug conjugates was measured by a cell proliferation assay (FIGS. 8-29). […] This assay determines the number of viable cells in culture based on quantitation of the ATP present, an indicator of metabolically active cells (Crouch et al (1993) J. Immunol. Meth. 160:81-88; U.S. Pat. No. 6,602,677). […]
# (§3) The homogeneous “add-mix-measure” format results in cell lysis and generation of a luminescent signal proportional to the amount of ATP present. […] Viable cells are reflected in relative luminescence units (RLU). Data can be recorded by luminometer or CCD camera imaging device. The luminescence output is presented as RLU, measured over time. […]
# SK-BR-3 cells = assay: CellTiter-Glo in vitro cell proliferation assay, SK-BR-3
# Procedure: as §1, §2, §3
# [1] = system: doxorubicin-resistant (DoxRes) HER2 cells; assay: CellTiter-Glo in vitro cell proliferation assay, doxorubicin-resistant HER2
# Description: Cell-based in vitro assays may be used to measure viability, i.e. proliferation (IC50), cytotoxicity (EC50), and induction of apoptosis (caspase activation) of the ADC. The CellTiter-Glo® Luminescent Cell Viability Assay is a commercially available (Promega Corp., Madison, Wis.), homogeneous assay method based on the recombinant expression of Coleoptera luciferase (U.S. Pat. Nos. 5,583,024; 5,674,713; 5,700,670). This cell proliferation assay determines the number of viable cells in culture based on quantitation of the ATP present, an indicator of metabolically active cells (Crouch et al (1993) J. Immunol. Meth. 160:81-88; U.S. Pat. No. 6,602,677). […]
# as §2, §3
substance,measurement,setting,value
"trastuzumab: humanized anti-ErbB2 antibody huMAb4D5-8 (HERCEPTIN®, trastuzumab)","BT-474 in vitro cell viability at 3 days, anti-proliferative activity in words",BT-474 cells,modestly inhibits the growth
same,"SK-BR-3 in vitro cell viability at 3 days, anti-proliferative activity in words",SK-BR-3 cells,modestly inhibits the growth
same,"DoxRes HER2 in vitro cell viability at 3 days, anti-proliferative activity in words",[1],minimal activity; also recorded: no effect
